Tests used:
[1] = target: Kelch-like ECH-associated protein 1 (Homo sapiens) (UniProt Q14145)
[2] = target: Kelch-like ECH-associated protein 1 (Homo sapiens) (UniProt Q14145); remark: listed apart in the source

The chains behind the UniProt entries cited, without tags or fusion partners.
UniProt Q14145, whole entry: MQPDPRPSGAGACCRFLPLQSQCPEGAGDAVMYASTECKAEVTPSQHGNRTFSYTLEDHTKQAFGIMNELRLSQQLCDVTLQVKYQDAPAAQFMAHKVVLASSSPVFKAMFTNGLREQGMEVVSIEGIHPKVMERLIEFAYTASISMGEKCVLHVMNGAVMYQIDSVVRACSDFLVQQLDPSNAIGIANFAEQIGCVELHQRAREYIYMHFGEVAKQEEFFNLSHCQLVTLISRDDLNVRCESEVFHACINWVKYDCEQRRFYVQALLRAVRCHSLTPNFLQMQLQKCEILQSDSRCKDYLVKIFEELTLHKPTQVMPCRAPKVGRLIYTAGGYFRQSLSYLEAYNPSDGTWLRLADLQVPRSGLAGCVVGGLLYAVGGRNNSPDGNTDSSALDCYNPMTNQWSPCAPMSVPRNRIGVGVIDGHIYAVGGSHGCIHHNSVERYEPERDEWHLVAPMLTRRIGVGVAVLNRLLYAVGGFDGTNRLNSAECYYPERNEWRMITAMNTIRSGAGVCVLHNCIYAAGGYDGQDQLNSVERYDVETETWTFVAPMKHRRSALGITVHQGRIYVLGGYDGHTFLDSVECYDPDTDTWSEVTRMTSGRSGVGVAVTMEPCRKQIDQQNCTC

Cc1ccc([C@@H](NC(=O)[C@@H](F)c2ccc3c(c2)CCCC3)[C@@H](C)C(=O)O)cc1
deltaH [1]: -8.2 kcal/mol | deltaG [2]: -9.4 kcal/mol
